The test addresses T1, hSK2 (Homo sapiens, UniProt Q9H2S1).
T1 construct: host or cells: cells expressing SK channels
The experiment in a line: Assay for compound activity towards hSK channels (86Rb+ efflux). The format is cell-based. As to conditions: 86Rb+ efflux stimulated with calcium ionophore; drug 0.01 to 30 μM in EBSS; read-out: hSK2 Inhibitory Activity. Here is the method:
6.1 Assay for Compound Activity Towards hSK Channels Cells expressing small conductance, calcium activated potassium channels, such as SK-like channels were loaded with ^86Rb^+ by culture in media containing ^86RbCl. Following loading, the culture media was removed and the cells were washed in EBSS to remove residual traces of ^86Rb^+. Cells were preincubated with the drug (0.01 to 30 μM in EBSS) and then ^86Rb^+ efflux was stimulated by exposing cells to EBSS solution supplemented with a calcium ionophore, such as ionomycin, in the continued presence of the drug. After a suitable efflux period, the EBSS/ionophore solution was removed from the cells and the ^86Rb^+ content was determined by Cherenkov counting (Wallac Trilux). Cells were then lysed with a SDS solution and the ^86Rb^+ content of the lysate was determined. Percent ^86Rb^+ efflux was calculated according to the following equation: (^86Rb^+ content in EBSS/(^86Rb^+ content in EBSS+^86Rb^+ content of the lysate))×100 6.2 Results Compounds tested in this assay, along with their hSK2 inhibitory activity, are provided in Table 1.

Consider 2 substances from US7459457B2, “Polycyclic pyridines as potassium ion channel modulators” (Icagen, Inc., priority 2004, dated 2008).

Take “[2,6-Bis(1H-benzimidazol-2-yl) pyridine]2 Fe(II) Complex”: the IC50 is less than 100 nM. With “[2,6-Bis(1H-benzimidazol-2-yl) pyridine]2 Zn(II) Complex” the figure was less than 100 nM.
